The assay relates to MGC803. The experiment in a line: Cell viability assay (CellTiter-Meiluncell Luminescent), tumor cell proliferation, MGC803. The note with it: Homo sapiens, MGC-803, 96 h, read-out: inhibitory activity (IC50, nM) against tumor cells proliferation, MGC803.

On to `Nc1cccc2c1CN(C1CCC(=O)NC1=O)C2=O` (stereo not shown) [lenalidomide, reference compound], for which the IC50 is greater than 10000 nM.

(Values after patent EP4722207A1, “OXOISOINDOLINYL-SUBSTITUTED TETRAHYDROPYRIMIDINEDIONE DERIVATIVE AND USE THEREOF” (Gluetacs Therapeutics (Shanghai) Co., Ltd., priority 2023, dated 2024).)
